Experimental findings from patent US4542123A, “Composition and method for increasing brain tyrosine levels” (Massachusetts Institute of Technology, priority 1982, dated 1985) are described below.

The nature of assay [1]: Brain and plasma tyrosine ratios in fasted rats, tyrosine and glucose given concurrently (Example II, second set). The note with it: tyrosine 100 mg/kg, alone or concurrently with glucose 3 g/kg.
The nature of assay [2]: Serum and brain tyrosine in fasted rats, glucose 30 min before tyrosine (Example II, first set). The note with it: tyrosine 100 mg/kg by intubation, alone or 30 min after glucose 3 g/kg; 1 h after tyrosine; significantly different.

As for `N[C@@H](Cc1ccc(O)cc1)C(=O)O` [Tyrosine, tyrosine], the “Ratio of plasma tyrosine to plasma levels of its amino acid competitors” value is listed as 0.397 in assay [1] (90 min, untreated 0.100, differ significantly) and 0.265 in assay [1] (180 min, untreated 0.124). Moreover, the Brain tyrosine level in assay [2] was found to be 16.2.
